Values quoted from earlier work, collected in patent publication US10968216B2 (priority 2016, dated 2021).

Test system: acute promyelocytic leukemia (APL)
Details: human, in vivo; cited from earlier work

**Q.** With ATRA as the substance, how does the overall survival rates read?
**A.** over 70%
